Experimental findings from US11485732B2, “Compounds and uses thereof” (Foghorn Therapeutics Inc., priority 2020, dated 2022) are described below.

By UniProt entry, the sequences of proteins in these tests, tags left out.
UniProt P51532, whole entry: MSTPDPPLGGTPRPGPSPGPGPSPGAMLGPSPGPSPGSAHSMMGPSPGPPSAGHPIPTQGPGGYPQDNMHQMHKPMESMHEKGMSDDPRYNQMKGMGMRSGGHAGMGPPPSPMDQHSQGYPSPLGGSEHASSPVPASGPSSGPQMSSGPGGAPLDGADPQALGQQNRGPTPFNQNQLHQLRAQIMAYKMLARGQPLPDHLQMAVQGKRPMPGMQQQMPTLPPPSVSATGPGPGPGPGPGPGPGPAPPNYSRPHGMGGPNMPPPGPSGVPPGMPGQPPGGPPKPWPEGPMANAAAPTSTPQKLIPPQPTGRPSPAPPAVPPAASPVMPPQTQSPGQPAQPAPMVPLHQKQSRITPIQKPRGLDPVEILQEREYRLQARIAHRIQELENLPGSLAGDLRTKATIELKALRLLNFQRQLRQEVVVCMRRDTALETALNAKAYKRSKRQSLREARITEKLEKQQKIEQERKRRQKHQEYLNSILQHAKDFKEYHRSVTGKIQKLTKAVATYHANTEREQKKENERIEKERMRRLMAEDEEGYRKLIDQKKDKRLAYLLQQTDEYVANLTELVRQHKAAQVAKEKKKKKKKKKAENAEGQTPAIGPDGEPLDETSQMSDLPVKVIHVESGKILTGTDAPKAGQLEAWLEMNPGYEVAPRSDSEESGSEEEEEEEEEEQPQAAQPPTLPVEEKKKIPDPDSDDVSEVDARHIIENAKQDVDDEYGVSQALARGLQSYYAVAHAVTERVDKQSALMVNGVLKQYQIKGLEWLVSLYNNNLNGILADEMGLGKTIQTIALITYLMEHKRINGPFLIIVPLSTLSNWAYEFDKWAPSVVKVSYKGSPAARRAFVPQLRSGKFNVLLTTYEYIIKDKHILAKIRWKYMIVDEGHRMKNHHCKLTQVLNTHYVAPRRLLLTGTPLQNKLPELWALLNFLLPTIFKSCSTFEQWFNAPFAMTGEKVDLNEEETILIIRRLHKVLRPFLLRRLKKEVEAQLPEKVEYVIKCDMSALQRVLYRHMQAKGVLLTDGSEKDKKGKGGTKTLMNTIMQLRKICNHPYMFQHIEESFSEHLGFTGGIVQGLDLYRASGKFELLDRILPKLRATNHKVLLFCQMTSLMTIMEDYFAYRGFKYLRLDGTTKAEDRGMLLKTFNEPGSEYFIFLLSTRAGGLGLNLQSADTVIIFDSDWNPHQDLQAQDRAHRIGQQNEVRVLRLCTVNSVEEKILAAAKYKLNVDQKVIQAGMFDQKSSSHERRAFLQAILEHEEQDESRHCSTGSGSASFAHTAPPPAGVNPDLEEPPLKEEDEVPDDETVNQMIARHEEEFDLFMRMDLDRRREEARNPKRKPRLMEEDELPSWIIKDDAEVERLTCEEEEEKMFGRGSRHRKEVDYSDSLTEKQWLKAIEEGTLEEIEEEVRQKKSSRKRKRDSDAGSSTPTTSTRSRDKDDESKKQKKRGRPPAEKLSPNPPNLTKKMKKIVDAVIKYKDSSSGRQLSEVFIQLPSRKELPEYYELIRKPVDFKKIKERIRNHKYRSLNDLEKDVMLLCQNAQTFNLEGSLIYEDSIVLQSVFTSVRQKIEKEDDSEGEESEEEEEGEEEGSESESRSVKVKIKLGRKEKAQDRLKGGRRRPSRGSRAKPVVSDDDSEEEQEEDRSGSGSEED

Each structure is given as a SMILES string. pIC50: −log10 of the molar value.

Assay [1] addresses BRG1 (Homo sapiens, UniProt P51532). The assay can be described thus: biochemical.
In assay [2] the test system is Uveal melanoma cell lines, 92-1 or MP41. In words: 3-day growth inhibition compared with clinical PKC and MEK inhibitors (Example 8). In kind it is cell-based. The settings on record: 0 to 10 μM, 3 days.
Assay [3] has as its system uveal melanoma, hematologic cancer, prostate cancer, breast cancer, and Ewing's sarcoma cell lines versus the other tested cell lines.

In general, pIC50 refers to the negative decadic logarithm of the IC50, by convention in mol/L. Low readings indicate a high IC50, high ones a low IC50. On to `[2H]C([2H])([2H])OC([2H])([2H])[C@@H](NC(=O)c1ccn(S(C)(=O)=O)c1)C(=O)Nc1nc(-c2cccc(N3C[C@@H](C)O[C@@H](C)C3)n2)cs1` [N—((R)-1-((4-(6-(cis-2,6-dimethylmorpholino)pyridin-2-yl)thiazol-2-yl)amino)-3-(methoxy-d3)-1-oxopropan-2-yl-3,3-d2)-1-(methylsulfonyl)-1H-pyrrole-3-carboxamide], for which the pIC50 in assay [1] was 6.11.

Regarding `CSCC[C@H](NC(=O)c1ccc(N)cc1)C(=O)Nc1nc(-c2cccc(-c3ccncc3)c2)cs1` [Compound A], in assay [2], the “growth inhibition relative to clinical PKC (LXS196) and MEK (Selumetinib) inhibitors (FIG. 2, FIG. 3)” value was “comparable growth inhibition of uveal melanoma cells as the clinical PKC and MEK inhibitors”; the “onset of inhibition relative to clinical PKC and MEK inhibitors” value was “faster onset of inhibition than the clinical PKC and MEK inhibitors”.

On to `CSCC[C@H](NC(=O)c1ccn(S(C)(=O)=O)c1)C(=O)Nc1nc(-c2cccc(-c3ccncc3)c2)cs1` [Compound B], for which, in assay [3], the “duration of growth inhibition” value is listed as “maintained through day 7”.

Compound `COC[C@H](NC(=O)c1ccn(S(C)(=O)=O)c1)C(=O)Nc1nc(-c2cccc(N3C[C@@H](C)O[C@@H](C)C3)n2)cs1` [N—((S)-1-((4-(6-(cis-2,6-dimethylmorpholino)pyridin-2-yl)thiazol-2-yl)amino)-3-methoxy-1-oxopropan-2-yl)-1-(methylsulfonyl)-1H-pyrrole-3-carboxamide] had a pIC50 in assay [1] of 8.28.

In the case of `[2H]C([2H])([2H])OC([2H])([2H])[C@H](NC(=O)c1ccn(S(C)(=O)=O)c1)C(=O)Nc1nc(-c2cccc(N3C[C@@H](C)O[C@@H](C)C3)n2)cs1` [N—((S)-1-((4-(6-(cis-2,6-dimethylmorpholino)pyridin-2-yl)thiazol-2-yl)amino)-3-(methoxy-d3)-1-oxopropan-2-yl-3,3-d2)-1-(methylsulfonyl)-1H-pyrrole-3-carboxamide], the pIC50 in assay [1] was 8.13.
